# Measured values reported in patent US9415030B2, “High-dose glycine as a treatment for obsessive-compulsive disorder and obsessive-compulsive spectrum disorders” (priority 2008, dated 2016).
# Legend:
# [1] = human, in vivo
# Text: Hyperammonemia is seen in several abnormal conditions, e.g. inborn errors of metabolism that affect the urea cycle, small bowel syndrome, and others.
# [2] = human, in vivo; remark: listed apart in the source
# [3] = glycine ~18-22 grams infused over 30-50 minutes; cited from earlier work
substance,measurement,setting,value
glycine,ammonia concentration,[1],136 µM
same,plasma ammonia,[1],118 µM
same,plasma ammonia concentration,[1],118 to 136 µM
same,plasma glycine,[1],1326 µM
same,plasma glycine concentration,[1],2615 µM
same,time of plasma ammonia peak after completion of glycine ingestion,[1],about 2 hours
same,free glycine peak in brain magnetic resonance spectrum,[2],clearly shows a peak centered at 3.5 ppm
same,healthy volunteers with a more marked increase in plasma ammonia,[3],15%
same,healthy volunteers with no increase in plasma ammonia,[3],15%
same,healthy volunteers with only a slight increase in plasma ammonia,[3],70%
same,plasma ammonia concentrations in some individuals with marked increase,[3],100 to 120 µM
